# Measurements: US11384076B2, “Synthesis, pharmacology and use of new and selective FMS-like tyrosine kinase 3 (FLT3) FLT3 inhibitors” (UNIVERSITÄT REGENSBURG, priority 2017, dated 2022)
# How the values were obtained:
# [1] = system: Ba/F3 ITD N676K; test: Cell cycle / subG1 fraction in Ba/F3 mutants, flow cytometry; format: cell-based, murine; conditions: 5 nM, 48 h
# Procedure: Cells were stained with PI; cell cycle was analyzed by flow cytometry.
# After incubation, cells were harvested on ice and fixed in 80% ethanol at −20° C. for at least 1 h. Next, the cells were incubated with RNase for 30 min at room temperature, thereafter stained with propidium iodide (PI), and measured immediately with a flow cytometer. PI intercalates into DNA. In the different phases of the cell cycle, cells incorporate various amounts of PI. This allows the quantification of the cell cycle phases. The subG1 population represents the fraction of apoptotic/necrotic cells, which contains only fragmented DNA (DNA content <2N).
# As described in the introduction there are several mutations next to ITDs that lead to reduce efficiency or to resistance against FLT3i treatment. The murine pro B cell line Ba/F3 and different mutant forms were analyzed. The proliferation of Ba/F3 wild type (WT) cells is dependent of interleukin-3 (IL-3). These cells were cultivated with 10% WEHI.
# The WT and the different mutants were stained with PI and cell cycle distribution was analyzed by flow cytometry.
# [2] = system: FLT3 plus KIT; conditions: leukemic patients; Smith, Lasater et al. 2014; cited from earlier work
# [3] = system: Ba/F3 ITD N676K mutant; test: FLT3 signaling in Ba/F3 mutants, Western blot; conditions: 5 nM, 2 h
smiles,measurement,setting,value
"CC(C)(C)c1cc(NC(=O)Nc2ccc(-c3cn4c(n3)sc3cc(OCCN5CCOCC5)ccc34)cc2)no1.Cl.Cl [AC220, N-(5-tert-Butyl-isoxazol-3-yl)-N′-{4-[7-(2-morpholin-4-yl-ethoxy)imidazo[2,1-b][1,3]benzothiazol-2-yl]phenyl}urea Dihydrochloride, reference compound]",subG1 fraction,[1],clear increase
same,myelosuppression,[2],severe myelosuppression
same,signal of p-FLT3,[3],clear reduction
